Data: patent US9610249B2, “Dosage and administration for preventing cardiotoxicity in treatment with ERbB2-targeted immunoliposomes comprising anthracycline chemotherapeutic agents” (MERRIMACK PHARMACEUTICALS, INC., priority 2010, dated 2017)

What was measured:
phospho-AKT (pAKT) = assay: Signaling in iPS-derived cardiomyocytes; type: cell-based, human; conditions: 24 hours pretreatment; 10 nM heregulin, 10 min
Procedure: (§1) iPS-derived cardiomyocytes (iCell™ iPS-derived human cardiomyocytes—Cellular Dynamics International (CDI), Madison, Wis.—CDI #CMC-100-010-001, Lot 1258680) are cultured using iCell™ Plating Medium (CDI #CMM-100-110-005, Lot 1013740 and iCell™ Maintenance Medium (CDI #CMM-100-120-005, Lot 1000305) and are exposed to components of MM-302. Levels of phospho-AKT (pAKT) and phospho-ERK (pERK) in the cardiomyocytes are then measured using immunostaining and high content microscopy. Cells are pretreated for 24 hours with either trastuzumab, lapatinib, or the MM-302 antibody (F5-scFv) and an MM-302 molecule (liposome) not containing doxorubicin (F5-lipo) at an equivalent concentration to 5.0 ug/ml of MM-302. Cells are stained and imaged using high content microscopy as described above for (A) pAKT and (B) pERK following a10 minute stimulation with 10 nM and 5 nM of heregulin, respectively. […] Images are analyzed and individual cells are segmented on the basis of Hoechst 33342 nuclear staining. Single cell signal intensity for each stain is quantified and represented as the mean relative intensity of individual cells.
(§2) After stimulation with 10 nM (FIG. 6A) and 5 nM (FIG. 6B) of heregulin (HRG) for 10 min, the levels of phospho-AKT (pAKT, FIG. 6A) and phospho-ERK (pERK, FIG. 6B) were measured by high content microscopy as described above.

phospho-ERK (pERK) = assay: Signaling in iPS-derived cardiomyocytes; type: cell-based, human; conditions: 24 hours pretreatment; 5 nM heregulin, 10 min
Procedure: as §1, §2

## trastuzumab: therapeutic anti-HER2 antibody
phospho-AKT (pAKT)
  heregulin (HRG)-induced phosphorylation of AKT: reduction in HRG-mediated phosphorylation
phospho-ERK (pERK)
  heregulin (HRG)-induced phosphorylation of ERK: reduction in HRG-mediated phosphorylation
